The entries are a selection whose mix differs from that of the whole data set. The source made the active and inactive calls.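 How the source made its calls: active means response, share of CD8 T cells binding vesicles, and their 90th percentile fluorescence all below set limits (cut at about 80% in these data, passing the limit was not always enough); inactive means the rest, inconclusive results apart.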
Assay: modulators of CD8 T cell-vesicle binding, primary screen, mouse 2C CD8+ T cells, flow cytometry (AID 2052);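 further: values below 100% mean blocked vesicle binding to the CD8+ T cells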
Details: 2C CD8+ T cell-vesicle binding, at 7 µM, active compounds read low
Procedure, shortened: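 Assay system – 2C mouse CD8+ T cells · Also added – QL9-loaded Drosophila micro-vesicles · Timing – Cell–vesicle co-incubation 1.5 h at 37 °C, staining 20 min on ice · Signal – flow cytometry of vesicle-bound cells · Measure – percent CD8+ FL2 mean versus row control · Controls – Peptide-free naked vesicles (low) and QL9 vesicles with 0.7% DMSO vehicle (high)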
In the case of CC(=O)NC(SC(=S)N(C)C)C(Cl)(Cl)Cl (configuration not stated), the response (vesicle binding) is reported as inactive: 343%.
For O=[N+]([O-])c1ccc(OP2(=O)COCCO2)cc1 (configuration not stated), the response (vesicle binding) was inactive: 214%.
In the case of O=[N+]([O-])c1ncn(CCn2cnc([N+](=O)[O-])n2)n1, the response (vesicle binding) is reported as inactive: 373%.
For O=[N+]([O-])c1ccc(O)c(/C=N/Nc2ccc([N+](=O)[O-])cc2[N+](=O)[O-])c1, the response (vesicle binding) was inactive: 180%.
In the case of O=[N+]([O-])c1cc([N+](=O)[O-])c(NCC2CCS(=O)(=O)C2)c([N+](=O)[O-])c1 (configuration not stated), the response (vesicle binding) is reported as inactive: 465%.
With O=[As](O)(c1ccccc1)c1ccc(O)cc1 the response (vesicle binding) was inactive: 838%.
In the case of C[C@H]1OP(=O)(Oc2ccccc2)[C@H](O)[C@H](O)[C@H]1N=[N+]=[N-] (some centres not stated), the response (vesicle binding) is reported as inactive: 583%.
For O=P(Nc1nc2ccccc2s1)(c1ccccc1)c1ccccc1, the response (vesicle binding) was inactive: 49.3%.
In the case of CN(C)CCOC(=O)C(O)(c1ccccc1)C1CCCCC1 (configuration not stated), the response (vesicle binding) is reported as inactive: 950%.
In the case of COc1ccc(NP(C)(=O)Oc2ccccc2OC)cc1 (configuration not stated), the response (vesicle binding) is reported as inactive: 235%.
For COc1ccc(OP(C)(=O)Nc2cccc(Br)c2)cc1 (configuration not stated), the response (vesicle binding) was inactive: 367%.
With CN(C)C1(CNC(=O)c2ccc(Cl)c(S(N)(=O)=O)c2)CCCCC1 the response (vesicle binding) was inactive: 353%.
In the case of O=P(Nc1ccccn1)(c1ccc(Br)cc1)c1ccc(Br)cc1, the response (vesicle binding) is reported as inactive: 364%.
With Cc1ccccc1NP(C)(=O)Nc1ccccc1C the response (vesicle binding) was inactive: 405%.
In the case of CP(=O)(Nc1ccc2c(c1)OCCO2)Oc1ccccc1 (configuration not stated), the response (vesicle binding) is reported as inactive: 206%.
For CCOP(C)(=S)SCC(=O)NC(C)(CC)C(=O)O (configuration not stated), the response (vesicle binding) was inactive: 177%.
In the case of c1nnnn1CCn1cnnn1, the response (vesicle binding) is reported as inactive: 468%.
In the case of CP(=O)(Nc1ccc(SC(F)(F)F)cc1)Oc1ccc(F)cc1 (configuration not stated), the response (vesicle binding) is reported as inactive: 762%.
For O=P(Nc1nccs1)(c1ccccc1)c1ccccc1, the response (vesicle binding) was inactive: 218%.
In the case of CC(C)C(=O)NC(Sc1ccccc1)C(Cl)(Cl)Cl (configuration not stated), the response (vesicle binding) is reported as inactive: 128%.
With CC1(CBr)Cn2c(nc3ccccc3c2=O)S1 (configuration not stated) the response (vesicle binding) was inactive: 233%.
In the case of Cc1nc2ccc3ccccc3c2s1.O=[N+]([O-])c1cc([N+](=O)[O-])c(O)c([N+](=O)[O-])c1, the response (vesicle binding) is reported as inactive: 372%.
With O=[As](O)(c1ccccc1Br)c1ccccc1Br the response (vesicle binding) was inactive: 88.4%.
For CN(C(=O)Cc1ccc(Cl)c(Cl)c1)[C@@H]1CCCC[C@H]1N1CCCC1, the response (vesicle binding) was inactive: 535%.
For CC(C)/C=N\N=C(\N)N[N+](=O)[O-], the response (vesicle binding) was inactive: 329%.
For COc1ccccc1CNC(=O)COC(=O)C(O)(c1ccccc1)c1ccccc1, the response (vesicle binding) was inactive: 755%.
With O=[N+]([O-])c1cc([N+](=O)[O-])c(-c2cnn(-c3ccccc3)c2)c([N+](=O)[O-])c1 the response (vesicle binding) was inactive: 840%.
For CC(C)(C)C(=O)NC(Sc1ncccn1)C(Cl)(Cl)Cl (configuration not stated), the response (vesicle binding) was inactive: 118%.
In the case of Clc1n[nH]nc1-c1nn[nH][15n]1, the response (vesicle binding) is reported as inactive: 345%.
With CCOP(=O)(Nc1ccc(C)cn1)OCC the response (vesicle binding) was inactive: 290%.
With CN(CCCl)Cc1cc(Cl)c(NC2=NCCN2)c(Cl)c1 the response (vesicle binding) was inactive: 0%.
With O=[N+]([O-])c1cc([N+](=O)[O-])c(-n2nnc3ccccc32)c([N+](=O)[O-])c1 the response (vesicle binding) was inactive: 249%.
In the case of CCOP(=O)(NC(=NC(C)c1ccccc1)NC(C)c1ccccc1)OCC (configuration not stated), the response (vesicle binding) is reported as inactive: 167%.
For CCC1=CC2Cc3nc4ccc(Cl)cc4c(N)c3C(C1)C2 (configuration not stated), the response (vesicle binding) was inactive: 723%.
In the case of O=P1(Nc2ccccn2)COc2ccccc2OC1, the response (vesicle binding) is reported as inactive: 326%.
For Cc1ccc(OCC(=O)OC2CN3CCC2CC3)cc1 (configuration not stated), the response (vesicle binding) was inactive: 267%.
In the case of NS(=O)(=O)c1cccc(NC(=O)COC(=O)C(O)(c2ccccc2)c2ccccc2)c1, the response (vesicle binding) is reported as inactive: 357%.
For O=P1(Nc2ccc(Br)cn2)COc2ccccc2OC1, the response (vesicle binding) was inactive: 256%.
In the case of CCCOc1ccc(NP(C)(=O)Oc2ccc(Cl)cc2)cc1 (configuration not stated), the response (vesicle binding) is reported as inactive: 265%.
For Nc1cccc([As](=O)(O)c2ccccc2)c1, the response (vesicle binding) was inactive: 288%.
In the case of CP(=O)(Nc1ccc(SC(F)(F)F)cc1)Oc1ccccc1 (configuration not stated), the response (vesicle binding) is reported as inactive: 194%.
In the case of CN1CCCCC1COC(=O)C1(O)c2ccccc2CCc2ccccc21 (configuration not stated), the response (vesicle binding) is reported as inactive: 367%.
For COc1ccccc1OP(C)(=O)Nc1c(C)cccc1C (configuration not stated), the response (vesicle binding) was inactive: 246%.
With O=P1(Nc2ncccn2)COc2ccccc2OC1 the response (vesicle binding) was inactive: 466%.
For O=C(/C=C/c1ccccc1)OC1CN2CCC1CC2 (configuration not stated), the response (vesicle binding) was inactive: 318%.
In the case of CCOC(=O)C(CC)C1=NC(C)(C)Cc2ccccc21.O=[N+]([O-])c1cc([N+](=O)[O-])c(O)c([N+](=O)[O-])c1 (configuration not stated), the response (vesicle binding) is reported as inactive: 178%.
In the case of CC1=C2N=C(C=C3N=C(C(C)=C4[N-][C@@](C)([C@@H]5N=C1[C@](C)(CCC(=O)NC[C@@H](C)OP(=O)([O-])O[C@H]1[C@@H](O)[C@@H](n6cnc7cc(C)c(C)cc76)O[C@@H]1CO)[C@H]5CC(N)=O)[C@@](C)(CC(N)=O)[C@@H]4CCC(N)=O)[C@@](C)(CC(N)=O)[C@@H]3CCC(N)=O)C(C)(C)[C@@H]2CCC(N)=O.[C-]#N.[Co+3], the response (vesicle binding) is reported as inactive: 741%.
With CN(C)C1(CNC(=O)c2ccc(S(C)(=O)=O)cc2)CCCCC1 the response (vesicle binding) was inactive: 236%.
With O=[N+]([O-])c1cc([N+](=O)[O-])c(Nc2nnnn2CCO)c([N+](=O)[O-])c1 the response (vesicle binding) was inactive: 118%.
In the case of COc1cc(C2NCCC3(OCCO3)C2(C)C)cc(OC)c1OC.O=[N+]([O-])c1cc([N+](=O)[O-])c(O)c([N+](=O)[O-])c1 (configuration not stated), the response (vesicle binding) is reported as inactive: 219%.
In the case of Cc1ccc(C(=O)OC2CN3CCC2CC3)cc1 (configuration not stated), the response (vesicle binding) is reported as inactive: 204%.
In the case of CC1CCC(C(C)C)C(OP(=O)(Nc2ccccn2)c2ccccc2)C1 (configuration not stated), the response (vesicle binding) is reported as inactive: 1070%.
With Cc1nn(-c2ccccc2)c2c1P(=O)(N1CCOCC1)N(C)C(c1ccccc1)=N2 (configuration not stated) the response (vesicle binding) was inactive: 444%.
For CC1=NCCc2c1[nH]c1ccccc21.O=[N+]([O-])c1cc([N+](=O)[O-])c(O)c([N+](=O)[O-])c1, the response (vesicle binding) was inactive: 219%.
For CN(C(=O)Cc1ccc(Cl)c(Cl)c1)[C@H]1CC[C@@]2(CCCO2)C[C@@H]1N1CCCC1, the response (vesicle binding) was inactive: 180%.
For O=[N+]([O-])c1ccc2c(c1)nnn2O, the response (vesicle binding) was inactive: 470%.
With CN(C)C(=O)c1cc([N+](=O)[O-])cc2c1-c1c(cc([N+](=O)[O-])cc1[N+](=O)[O-])C2=O the response (vesicle binding) was inactive: 371%.

Source: PubChem BioAssay AID2052 (NMMLSC, 2009)
